According to US11806555B2, “Methods for treating hair loss disorders” (THE TRUSTEES OF COLUMBIA UNIVERSITY IN THE CITY OF NEW YORK, priority 2010, dated 2023):

Tested on: alopecia areata in grafted C3H/HeJ mice
Conditions: placebo 2/5

N#CCC(C1CCCC1)n1cc(-c2ncnc3[nH]ccc23)cn1 (stereo not shown) [INCB018424]
mice that developed alopecia: 0/5
